Experimental data taken from patent US9388140B2, “Substituted benzimidazoles” (priority 2011, dated 2016).

The chains behind the UniProt entries cited, without tags or fusion partners. Where a name states a change or a piece, a line headed by the entry shows the natural chain unless it says otherwise.
UniProt P33981: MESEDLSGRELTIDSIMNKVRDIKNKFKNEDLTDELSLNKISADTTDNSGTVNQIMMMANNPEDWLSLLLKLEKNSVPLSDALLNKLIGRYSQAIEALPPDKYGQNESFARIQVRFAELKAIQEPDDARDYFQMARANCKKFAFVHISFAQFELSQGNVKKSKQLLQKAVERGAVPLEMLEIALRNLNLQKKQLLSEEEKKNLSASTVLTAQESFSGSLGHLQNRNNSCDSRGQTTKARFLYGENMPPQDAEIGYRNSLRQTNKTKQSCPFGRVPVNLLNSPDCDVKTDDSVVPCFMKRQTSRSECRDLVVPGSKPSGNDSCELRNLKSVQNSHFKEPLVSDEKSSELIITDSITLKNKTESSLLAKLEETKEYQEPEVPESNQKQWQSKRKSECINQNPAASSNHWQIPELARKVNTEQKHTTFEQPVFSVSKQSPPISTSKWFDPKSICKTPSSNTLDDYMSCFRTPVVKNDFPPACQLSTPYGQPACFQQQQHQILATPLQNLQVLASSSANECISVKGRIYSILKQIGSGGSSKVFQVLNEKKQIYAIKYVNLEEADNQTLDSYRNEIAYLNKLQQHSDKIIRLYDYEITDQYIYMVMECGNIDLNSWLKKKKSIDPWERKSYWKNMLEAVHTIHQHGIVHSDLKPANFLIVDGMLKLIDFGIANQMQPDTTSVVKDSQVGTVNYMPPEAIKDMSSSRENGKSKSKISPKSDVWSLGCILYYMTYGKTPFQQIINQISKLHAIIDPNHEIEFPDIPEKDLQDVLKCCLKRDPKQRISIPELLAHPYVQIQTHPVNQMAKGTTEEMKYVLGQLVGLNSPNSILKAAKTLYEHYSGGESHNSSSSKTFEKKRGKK

Target: human kinase Mps-1 (Homo sapiens (Human), UniProt P33981)
Test: Mps-1 kinase assay (TR-FRET)
Format: biochemical
Conditions: N-terminally GST-tagged human full length recombinant Mps-1; 10 μM ATP; 1 μM biotinylated peptide substrate; read-out: Mps1 IC50
Protocol: The human kinase Mps-1 phosphorylates a biotinylated substrate peptide. Detection of the phosphorylated product is achieved by time-resolved fluorescence resonance energy transfer (TR-FRET) from Europium-labelled anti-phospho-Serine/Threonine antibody as donor to streptavidin labelled with cross-linked allophycocyanin (SA-XLent) as acceptor. Compounds are tested for their inhibition of the kinase activity.
N-terminally GST-tagged human full length recombinant Mps-1 kinase (purchased from Invitrogen, Karslruhe, Germany, cat. no PV4071) was used. As substrate for the kinase reaction a biotinylated peptide of the amino-acid sequence […] (C-terminus in amide form, purchased from Biosynthan GmbH, Berlin) was used. […]
The resulting mixture was incubated 1 h at 22° C. to allow the binding of the phosphorylated peptide to the anti-phospho(Ser/Thr)-Europium-antibody. Subsequently the amount of phosphorylated substrate was evaluated by measurement of the resonance energy transfer from the Europium-labelled anti-phospho(Ser/Thr) antibody to the Streptavidin-XLent. Therefore, the fluorescence emissions at 620 nm and 665 nm after excitation at 350 nm was measured in a Viewlux TR-FRET reader (PerkinElmer LAS, Rodgau-Jügesheinn, Germany). […]

- IC50: 24.2 nM
SMILES: COc1ccc(C(C)(O)c2cc(NCCC(F)(F)F)c3ncn(-c4ccc(C(=O)NC5CC5)c(CO)c4)c3c2)cc1F (racemic) [Example 103B, N-cyclopropyl-4-{6-[(1RS)-1-(3-fluoro-4-methoxyphenyl)-1-hydroxyethyl]-4-[(3,3,3-trifluoropropyl)amino]-1H-benzimidazol-1-yl}-2-(hydroxymethyl)benzamide]
